From PubChem BioAssay (NCI)
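Values below derive from 48-hour exposures of cells grown in 96-well plates, with endpoints linearly interpolated between the two concentrations bracketing the appropriate inhibition level. The concentration for 50% growth inhibition is given as GI50. The concentration for full growth arrest is given as TGI.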

How the values were obtained:
Assay in all cases: NCI tumour cell line growth inhibition, 48 h
BT-549 breast = system: BT-549 breast
IGROV1 ovarian = system: IGROV1 ovarian
A498 renal = system: A498 renal
SK-MEL-2 melanoma = system: SK-MEL-2 melanoma
SK-MEL-5 melanoma = system: SK-MEL-5 melanoma
PC-3 prostate = system: PC-3 prostate
OVCAR-8 ovarian = system: OVCAR-8 ovarian
UACC-62 melanoma = system: UACC-62 melanoma
COLO 205 colon = system: COLO 205 colon
SR leukemia = system: SR leukemia
MOLT-4 leukemia = system: MOLT-4 leukemia
HCC-2998 colon = system: HCC-2998 colon
K-562 leukemia = system: K-562 leukemia
HOP-18 NSCLC = system: HOP-18 NSCLC
T-47D breast = system: T-47D breast
HCT-15 colon = system: HCT-15 colon
HOP-92 NSCLC = system: HOP-92 NSCLC
SF-295 CNS = system: SF-295 CNS
CAKI-1 renal = system: CAKI-1 renal
M19-MEL melanoma = system: M19-MEL melanoma
NCI-H226 lung = system: NCI-H226 lung
HCT-116 colon = system: HCT-116 colon
NCI-H460 lung = system: NCI-H460 lung
MDA-MB-231 breast = system: MDA-MB-231 breast
SNB-19 CNS = system: SNB-19 CNS
NCI-H522 lung = system: NCI-H522 lung
UACC-257 melanoma = system: UACC-257 melanoma
RPMI-8226 leukemia = system: RPMI-8226 leukemia
SK-MEL-28 melanoma = system: SK-MEL-28 melanoma
M14 melanoma = system: M14 melanoma
NCI/ADR-RES ovarian = system: NCI/ADR-RES ovarian
MALME-3M melanoma = system: MALME-3M melanoma
TK-10 renal = system: TK-10 renal
LXFL 529 NSCLC = system: LXFL 529 NSCLC
SF-539 CNS = system: SF-539 CNS
KM12 colon = system: KM12 colon
MDA-N = system: MDA-N
HL-60(TB) leukemia = system: HL-60(TB) leukemia
EKVX NSCLC = system: EKVX NSCLC
DMS 114 small cell lung = system: DMS 114 small cell lung
DU-145 prostate = system: DU-145 prostate
SF-268 CNS = system: SF-268 CNS
NCI-H23 lung = system: NCI-H23 lung
A549 NSCLC = system: A549 NSCLC
HOP-62 NSCLC = system: HOP-62 NSCLC
MCF7 breast = system: MCF7 breast
HS 578T breast = system: HS 578T breast
OVCAR-3 ovarian = system: OVCAR-3 ovarian
MDA-MB-435 = system: MDA-MB-435
RXF 393 renal = system: RXF 393 renal
U251 CNS = system: U251 CNS
KM20L2 colon = system: KM20L2 colon
XF 498 CNS = system: XF 498 CNS
786-0 renal = system: 786-0 renal
UO-31 renal = system: UO-31 renal
OVCAR-4 ovarian = system: OVCAR-4 ovarian
SK-OV-3 ovarian = system: SK-OV-3 ovarian
OVCAR-5 ovarian = system: OVCAR-5 ovarian
DMS 273 small cell lung = system: DMS 273 small cell lung
DLD-1 colon = system: DLD-1 colon
CCRF-CEM leukemia = system: CCRF-CEM leukemia
HT29 colon = system: HT29 colon
LOX IMVI melanoma = system: LOX IMVI melanoma
NCI-H322M lung = system: NCI-H322M lung
SW-620 colon = system: SW-620 colon
ACHN renal = system: ACHN renal
SN12C renal = system: SN12C renal

`CS(=O)(=O)OCCN(CCOS(C)(=O)=O)c1ccc(C(=O)O)cc1` was tested, and the GI50 (BT-549 breast) was > 100 µM, the TGI (BT-549 breast) was > 100 µM and the GI50 (IGROV1 ovarian) was > 100 µM. The TGI (IGROV1 ovarian) was > 100 µM, the GI50 (A498 renal) was > 100 µM and the TGI (A498 renal) was > 100 µM. The GI50 (SK-MEL-2 melanoma) was > 100 µM, the TGI (SK-MEL-2 melanoma) was > 100 µM and the GI50 (SK-MEL-5 melanoma) was > 100 µM. The TGI (SK-MEL-5 melanoma) was > 100 µM, the GI50 (PC-3 prostate) was > 100 µM and the TGI (PC-3 prostate) was > 100 µM. For the same compound, the GI50 (OVCAR-8 ovarian) was > 100 µM, the TGI (OVCAR-8 ovarian) was > 100 µM and the GI50 (UACC-62 melanoma) was > 100 µM. For the same compound, the TGI (UACC-62 melanoma) was > 100 µM, the GI50 (COLO 205 colon) was > 100 µM and the TGI (COLO 205 colon) was > 100 µM. The GI50 (SR leukemia) was > 100 µM, the TGI (SR leukemia) was > 100 µM and the GI50 (MOLT-4 leukemia) was > 100 µM. For the same compound, the TGI (MOLT-4 leukemia) was > 100 µM, the GI50 (HCC-2998 colon) was > 100 µM and the TGI (HCC-2998 colon) was > 100 µM. The GI50 (K-562 leukemia) was > 100 µM, the TGI (K-562 leukemia) was > 100 µM and the GI50 (HOP-18 NSCLC) was > 100 µM. The TGI (HOP-18 NSCLC) was > 100 µM, the GI50 (T-47D breast) was > 100 µM and the TGI (T-47D breast) was > 100 µM. The GI50 (HCT-15 colon) was > 100 µM, the TGI (HCT-15 colon) was > 100 µM and the GI50 (HOP-92 NSCLC) was > 100 µM. For the same compound, the TGI (HOP-92 NSCLC) was > 100 µM, the GI50 (SF-295 CNS) was > 100 µM and the TGI (SF-295 CNS) was > 100 µM. For the same compound, the GI50 (CAKI-1 renal) was > 100 µM, the TGI (CAKI-1 renal) was > 100 µM and the GI50 (M19-MEL melanoma) was > 100 µM. The TGI (M19-MEL melanoma) was > 100 µM, the GI50 (NCI-H226 lung) was > 100 µM and the TGI (NCI-H226 lung) was > 100 µM. The GI50 (HCT-116 colon) was > 100 µM, the TGI (HCT-116 colon) was > 100 µM and the GI50 (NCI-H460 lung) was > 100 µM. For the same compound, the TGI (NCI-H460 lung) was > 100 µM, the GI50 (MDA-MB-231 breast) was > 100 µM and the TGI (MDA-MB-231 breast) was > 100 µM. For the same compound, the GI50 (SNB-19 CNS) was > 100 µM, the TGI (SNB-19 CNS) was > 100 µM and the GI50 (NCI-H522 lung) was > 100 µM. For the same compound, the TGI (NCI-H522 lung) was > 100 µM, the GI50 (UACC-257 melanoma) was > 100 µM and the TGI (UACC-257 melanoma) was > 100 µM. The GI50 (RPMI-8226 leukemia) was > 100 µM, the TGI (RPMI-8226 leukemia) was > 100 µM and the GI50 (SK-MEL-28 melanoma) was > 100 µM. For the same compound, the TGI (SK-MEL-28 melanoma) was > 100 µM, the GI50 (M14 melanoma) was > 100 µM and the TGI (M14 melanoma) was > 100 µM. For the same compound, the GI50 (NCI/ADR-RES ovarian) was > 100 µM, the TGI (NCI/ADR-RES ovarian) was > 100 µM and the GI50 (MALME-3M melanoma) was > 100 µM. For the same compound, the TGI (MALME-3M melanoma) was > 100 µM, the GI50 (TK-10 renal) was > 100 µM and the TGI (TK-10 renal) was > 100 µM. For the same compound, the GI50 (LXFL 529 NSCLC) was > 100 µM, the TGI (LXFL 529 NSCLC) was > 100 µM and the GI50 (SF-539 CNS) was > 100 µM. For the same compound, the TGI (SF-539 CNS) was > 100 µM, the GI50 (KM12 colon) was > 100 µM and the TGI (KM12 colon) was > 100 µM. For the same compound, the GI50 (MDA-N) was > 100 µM, the TGI (MDA-N) was > 100 µM and the GI50 (HL-60(TB) leukemia) was > 100 µM. For the same compound, the TGI (HL-60(TB) leukemia) was > 100 µM, the GI50 (EKVX NSCLC) was > 100 µM and the TGI (EKVX NSCLC) was > 100 µM. The GI50 (DMS 114 small cell lung) was > 100 µM, the TGI (DMS 114 small cell lung) was > 100 µM and the GI50 (DU-145 prostate) was > 100 µM. For the same compound, the TGI (DU-145 prostate) was > 100 µM, the GI50 (SF-268 CNS) was > 100 µM and the TGI (SF-268 CNS) was > 100 µM. The GI50 (NCI-H23 lung) was > 100 µM, the TGI (NCI-H23 lung) was > 100 µM and the GI50 (A549 NSCLC) was > 100 µM. For the same compound, the TGI (A549 NSCLC) was > 100 µM, the GI50 (HOP-62 NSCLC) was > 100 µM and the TGI (HOP-62 NSCLC) was > 100 µM. For the same compound, the GI50 (MCF7 breast) was > 100 µM, the TGI (MCF7 breast) was > 100 µM and the GI50 (HS 578T breast) was > 100 µM. For the same compound, the TGI (HS 578T breast) was > 100 µM, the GI50 (OVCAR-3 ovarian) was > 100 µM and the TGI (OVCAR-3 ovarian) was > 100 µM. The GI50 (MDA-MB-435) was > 100 µM, the TGI (MDA-MB-435) was > 100 µM and the GI50 (RXF 393 renal) was > 100 µM. For the same compound, the TGI (RXF 393 renal) was > 100 µM, the GI50 (U251 CNS) was > 100 µM and the TGI (U251 CNS) was > 100 µM. The GI50 (KM20L2 colon) was > 100 µM, the TGI (KM20L2 colon) was > 100 µM and the GI50 (XF 498 CNS) was > 100 µM. For the same compound, the TGI (XF 498 CNS) was > 100 µM, the GI50 (786-0 renal) was > 100 µM and the TGI (786-0 renal) was > 100 µM. The GI50 (UO-31 renal) was > 100 µM, the TGI (UO-31 renal) was > 100 µM and the GI50 (OVCAR-4 ovarian) was > 100 µM. For the same compound, the TGI (OVCAR-4 ovarian) was > 100 µM, the GI50 (SK-OV-3 ovarian) was > 100 µM and the TGI (SK-OV-3 ovarian) was > 100 µM. For the same compound, the GI50 (OVCAR-5 ovarian) was > 100 µM, the TGI (OVCAR-5 ovarian) was > 100 µM and the GI50 (DMS 273 small cell lung) was > 100 µM. The TGI (DMS 273 small cell lung) was > 100 µM, the GI50 (DLD-1 colon) was > 100 µM and the TGI (DLD-1 colon) was > 100 µM. For the same compound, the GI50 (CCRF-CEM leukemia) was 53.8 µM, the TGI (CCRF-CEM leukemia) was > 100 µM and the GI50 (HT29 colon) was > 100 µM. The TGI (HT29 colon) was > 100 µM, the GI50 (LOX IMVI melanoma) was > 100 µM and the TGI (LOX IMVI melanoma) was > 100 µM. For the same compound, the GI50 (NCI-H322M lung) was > 100 µM, the TGI (NCI-H322M lung) was > 100 µM and the GI50 (SW-620 colon) was > 100 µM. For the same compound, the TGI (SW-620 colon) was > 100 µM, the GI50 (ACHN renal) was > 100 µM and the TGI (ACHN renal) was > 100 µM. For the same compound, the GI50 (SN12C renal) was > 100 µM and the TGI (SN12C renal) was > 100 µM.
